Key:
[1] = target: T1, Trace amine-associated receptor 1 (Homo sapiens) (UniProt Q96RJ0); test: Agonist activity at human TAAR1 expressed in recombinant HEK293 cells assessed as cAMP accumulation after 30 mins by luminometer relative to phenethylamine; assay type: functional, cell-based
T1 sequence (whole entry): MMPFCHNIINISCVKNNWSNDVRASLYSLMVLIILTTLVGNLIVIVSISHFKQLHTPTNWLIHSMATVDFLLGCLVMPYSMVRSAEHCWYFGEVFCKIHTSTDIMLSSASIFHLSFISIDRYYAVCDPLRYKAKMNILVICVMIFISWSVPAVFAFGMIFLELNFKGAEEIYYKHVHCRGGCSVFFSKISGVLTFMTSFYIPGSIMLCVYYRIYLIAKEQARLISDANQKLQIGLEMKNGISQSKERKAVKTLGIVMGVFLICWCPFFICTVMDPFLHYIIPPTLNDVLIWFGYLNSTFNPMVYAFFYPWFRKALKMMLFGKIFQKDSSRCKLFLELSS

HEK293 = test: Selectivity ratio of EC50 for human adrenergic alpha 2A receptor expressed in CHL cells to EC50 for human TAAR1 expressed in recombinant HEK293 cells; assay type: cell-based

NC1=N[C@@H](c2ccc(Cl)c(Cl)c2)CO1
Emax [1]: 72% | Ratio EC50 (HEK293): 94
